The subject of the assay is strain MC4100/pHYD915. Nature of the assay: Surviving fraction of cells after MNNG mutagenesis. To be noted: MNNG 50 micrograms/ml, 30 minutes at 37° C., 0.1 M citrate buffer pH 5.5.

Structures are written as SMILES.

Regarding `CN(N=O)C(=N)N[N+](=O)[O-]`, the “surviving fraction of the cells after MNNG treatment” value was “about 10%”.

The values above are taken from patent publication US20050282258A1 (priority 2004, published 2005).
